Experimental data from ChEMBL document CHEMBL5634187, “Identification of Selective Imidazopyridine CSF1R Inhibitors” (ACS Med Chem Lett, 2024).
Calls of active or inactive are those of the source. The rule behind the calls is not given here.

System: Mus musculus
Assay: Antiinflammatory activity in LPS-induced C3H/HeN mouse model assessed as reduction in TNF-alpha level in plasma at 25 to 100 mg/kg, po preadministered with compound for 45 mins followed by recombinant mouse M-CSF1 addition prior to LPS administration at […] and measured after 1.5 hrs
Format: functional, organism-based
Settings: dose lower […], dose upper 100.0 mg/kg, time 5.0 hrs

COc1ccc(COc2ccc(Cn3cnc4cc(C#CC5CCNC5)cnc43)cc2OC)cn1 (stereo unspecified)
Activity: Active
